Measurements as given in US20230159891A1, “T CELL PROGENITOR PRODUCTION METHOD” (Kyoto University, priority 2020, published 2023).

Tested on: Hemogenic endothelial cells (HECs) derived from iPS cells
Assay: Importance of SR1 and IL-3 in production of T cell progenitor (Example 3)
Assay type: cell-based, human
Conditions: 12 days culture; control: 1 nM SR1, 10 ng/ml IL-3 plus SCF, Flt3L, TPO, IL-7, IL-6; FIG. 3
Description: Hemogenic endothelial cells (HECs) derived from iPS cells prepared in the same manner as in Example 1 were sorted by BD FACSAria® Fusion and re-suspended in a StemSpan SFEM II medium, followed by seeding the cells into a culture vessel (6-well plate) coated with RN and DLL4-Fc (225,000/6 wells). The added factors were the following: 300 ng/ml recombinant human (rh) stem cell factor (R&D systems), 300 ng/ml rh FMS-like tyrosine kinase 3 ligand (PeproTech), 100 ng/ml rh thrombopoietin (PeproTech), 100 ng/ml rh interleukin 7 (PeproTech), 100 ng/ml rh interleukin 6 (PeproTech), 10 ng/ml rh interleukin 3 (PeproTech), and 1 nM StemRegenin 1 (SR1, Calbiochem). Three conditions were set: all of these factors were added (control condition), interleukin 3 was excluded from the control condition (-IL-3 condition), and SR1 was excluded from the control condition (-SR1 condition); culture was then performed for 12 days. Halfway through the culture, on day 4 after the start of culture, 500 μl of the medium described above was added. On day 7 after the start of culture, a half amount of the medium was replaced. On day 12 after the start of culture, cells were collected with pipetting, and the cell number was measured. The cells were stained with the antibodies shown in Table 2 and measured with BD FACSAria™ Fusion.

B1: IL-3: recombinant human interleukin 3 (PeproTech) (protein, UniProt P08700 20-152, looked up)
Interleukin-3: APMTQTTPLKTSWVNCSNMIDEIITHLKQPPLPLLDFNNLNGEDQDILMENNLRRPNLEAFNRAVKSLQNASAIESILKNLLPCLPLATAAPTRHPIHIKDGDWNEFRRKLTFYLKTLENAQAQQTTLSLAIF
In the case of B1, the “cell proliferation (cell number) when the factor is excluded from the additives” value is reported as “reduced”.
